Values quoted from earlier work as cited in patent publication US12649758B2, “Industrial method for simultaneously preparing Stevia rebaudiana chlorogenic acid and stevioside” (Chenguang Biotech Group Co., Ltd., priority 2018, dated 2026).

## mono-caffeoyl chlorogenic acid
Lipophilic organic solvent
  solubility in a lipophilic organic solvent: hardly soluble
water, 25° C.
  solubility in water: 4%
